Data as given in patent US11952582B2, “Herbicide-resistance gene and application thereof in plant breeding” (priority 2017, dated 2024).

Test system: PaHPPD mutant M2
Experiment: E. coli pigment (OD405 nm) screening system: HPPD activity in the presence of triketone herbicides
Conditions: 0-50 μM herbicide

SMILES	resistance to the herbicide compared with wild-type WT (amount of melanin, OD405 nm)
CS(=O)(=O)c1ccc(C(=O)C2C(=O)CCCC2=O)c([N+](=O)[O-])c1 [mesotrione]	obvious resistance
CS(=O)(=O)c1ccc(C(=O)C2C(=O)CCCC2=O)c(Cl)c1 [sulcotrione]	obvious resistance
